A short description of data set [1]: Stability of fluorescent products in serum.
Data set [2] can be described thus: Quantum yield determination for fluorescent products (quinine sulfate reference).
The nature of data set [3]: Fluorescence properties (excitation/emission wavelengths, Stokes shift). The conditions noted are these: for pH dependency of fluorescence: around physiological pH, 30 μM 22, 10 μM 25; for Fluorescence profile λem / Fluorescence profile λex: Table 4, this work.
Data set [4] can be described thus: Conversion of probe to fluorescent product on reaction with CO. The conditions noted are these: CO gas; PBS, or DMA diluted with PBS.
Data set [5] has as its system HO-1. Put plainly: Western blot for HO-1 in HeLa cells. The conditions noted are these: 0.3 μM, 6 h.
The subject of data set [6] is HeLa cells. Description: Relative CO level in HeLa cells determined with 11a. The conditions noted are these: 100 μM 11a.
Data set [7] deals with COHb. Put plainly: COHb level determination in CO-treated mouse blood ex vivo.
Data set [8] is described as follows: CO-sensing reaction kinetics of CO probe molecules (fluorescence). The conditions noted are these: role: substrate, probe 10 μM; for Reaction kinetics towards CO (in words): CO 200 μM, PBS; for 2nd order reaction rate constant towards CO: second reactant CO (100-300 μM for 6a; 62.5-250 μM for 14), PBS pH 7.4.
Data set [9] can be described thus: Solubility.
A short description of data set [10]: Signal-to-noise ratio (SNR) of CO probe molecules.
A short description of data set [11]: Detection limit for CO of benzamide-based probes in degassed DMA. The conditions noted are these: for LOD (limit of detection): DMA; for Detection limit: 3σ/K.
Data set [12] is described as follows: Stability in PBS. The conditions noted are these: for Stability in PBS (in words): PBS pH 7.4; for Stability in PBS (time): 37 °C, HPLC.
A short description of data set [13]: Sensing selectivity for CO over other species. The conditions noted are these: pH 7.4 PBS; other species 100 μM (thiol, persulfide, peroxide, NO2^−, glutathione, glutathione disulfide, cysteine, CN^−, hydrogen sulfide, HClO).
Data set [14] can be described thus: CO concentration in liver and kidney tissue of dosed mice (14 or methanizer-FID-GC).
The subject of data set [15] is HeLa cells. Description: Cytotoxicity in HeLa cells (CCK-8). The conditions noted are these: less than 50 μM, within 24 h.
In data set [16] the test system is HeLa cells. Description: Fluorescence imaging of CO in live HeLa cells. The conditions noted are these: 20 μM probe; for Fluorescence in live HeLa cells after treatment with CO: DAPI channel, control without CO showed none.
Data set [17] in a line: Detection limit for CO of naphthamide-based probes in PBS. The conditions noted are these: for Detection limit: probe 20 μM in PBS, 3σ/K.
Setting [18] is: at 10 μM probe, emission spectrum area-based, >20 equiv. excessive CO.

“And” between values parts separate entries of the source, which are not always exact repeats. Identical values can stand only once. “Also recorded” adds a separate entry of the source.

As to `CCCCN1C(=O)c2cccc(N)c2C1=O`, the Stability in serum entry in data set [1] is “stable in serum”. Besides, the “Φf (quantum yield)” value in [2] (medium H2O) and in data set [2] (medium PBS (pH 7.4)) was 0.37 in each case.
For `CCCCN1C(=O)c2cccc(O)c2C1=O`, in data set [1], the Stability in serum entry was “stable in serum”. In addition, the “Φf (quantum yield)” value in data set [2] (medium PBS (pH 7.4)) came to 0.23. Also, in [3], the Stokes shift is 114 nm and the “pH dependency of fluorescence” value was “pH dependent”.
Turning to `CCCCN1C(=O)c2cccc3c(OC)ccc(c23)C1=O`, in data set [2] (medium H2O), the “Φf (quantum yield)” value was determined as 0.82.
Take `CCCCNC(=O)c1c(O)cccc1C(=O)OCC`: the “Conversion to fluorescent product / fluorescence recovery with CO” value in data set [4] is listed as “completely converted to 22 almost instantly”.
On to `CCCCNC(=O)c1ccccc1O`, for which, in data set [3], the “λEm of protodepalladation species” value was found to be 420 nm and the “λEx of protodepalladation species” value turned out to be 329 nm.
Consider `CCCN1C(=O)c2cccc(N)c2C1=O`, for which the “Φf (quantum yield)” value in [2] (medium H2O) and in data set [2] (medium PBS (pH 7.4)) was 0.33 each time. In addition, the “pH dependency of fluorescence” value in data set [3] was “largely disappeared”. In data set [3] (compared to 22), the “Blue shift of maximum excitation and emission wavelengths compared to 22” value is “about 10 nm”.
As to `CCCN1C(=O)c2cccc(O)c2C1=O`, the “Φf (quantum yield)” value in data set [2] (medium PBS (pH 7.4)) was found to be 0.29.
`COC(=O)[C@]12CCC(C)(C)C[C@H]1[C@H]1C(=O)C=C3[C@@]4(C)C=C(C#N)C(=O)C(C)(C)[C@@H]4CC[C@@]3(C)[C@]1(C)CC2`: the HO-1 expression entry in [5] was “significantly increased HO-1 expression”. Besides, the “Increase in fluorescence signal compared to DMSO vehicle control” value in data set [6] (0.3 μM CDDO-Me, 6 h) was found to be 7.5%.
As for `[C-]#[O+]`, in [6] (250 ppm CO gas, 2 h), the “Increase in fluorescence signal compared to DMSO vehicle control” value was “about 28%”. Moreover, the “COHb level, CO-oximeter reading” value in data set [7] (partial CO saturated blood, same sample as measured with 5a) amounted to 8.2±0.45%.
With “(2-(butylcarbamoyl)-3-aminophenyl)(N^1,N^1,N^2,N^2-tetramethylethylenediamine) palladacycle trifluoromethanesulfonate salt”, the “Reaction kinetics towards CO (in words)” value in data set [8] was “faster response to CO when compared to the hydroxyl derivative 5a”. For the same compound, in data set [9], the “Aqueous/PBS solubility (in words)” value is “more water soluble than compounds 14 and 31a”; the “Solubility in PBS” value is given as “about 5 mM”. Also, the SNR entry in data set [10] (setting [18]) is “Probe concentration dependent, 405-fold at 10 μM (area-based)”. In [3], the “Fluorescence profile λem” value is listed as 500 nm and the “Fluorescence profile λex” value came out at 386 nm. In [11], the “LOD (limit of detection)” value is given as 0.9 nM (DMA). Also, the Detection limit in data set [11] (probe 100 μM in DMA) turned out to be 0.203 ppm. Also, the Detection limit in [11] (probe 1 mM in DMA) is on record as 0.187 ppm.
Take “(2-(butylcarbamoyl)-3-aminophenyl)(bipyridine) palladium(II) iodide”: the “Reaction kinetics towards CO (in words)” value in [8] was “substantially increased reaction kinetics compared to 12, 11a, and 5a”.
For the compound “(2-(butylcarbamoyl)-3-hydroxyphenyl)(N^1,N^1,N^2,N^2-tetramethylethylenediamine) palladacycle trifluoromethanesulfonate salt”, the “Solubility in PBS” value in data set [9] is “about 5 mM”. For the same compound, the SNR result in [10] (setting [18]) is reported as “Probe concentration dependent, 262-fold at 10 μM (area-based)”; in data set [10] (probe concentration 10 μM, PBS), 320 :1; in data set [10] (probe concentration 100 μM, PBS), “exceeds 1200 :1”. Moreover, the “Fluorescence profile λem” value in data set [3] is recorded as 511 nm. The “Fluorescence profile λex” value in [3] was determined as 397 nm. Moreover, in [7] (10 mM 5a, partial CO saturated mouse blood), the Fluorescence intensity amounted to 117.48 a.u. Besides, in [7] (partial CO saturated mouse blood, fluorescence standard curve), the “COHb level determined with 5a” value came out at 7.9%. In data set [11], the “LOD (limit of detection)” value is given as 0.75 nM (DMA). In addition, the Detection limit in data set [11] (probe 100 μM in DMA) worked out at 0.167 ppm; in data set [11] (probe 1 mM in DMA), 0.099 ppm. Further, the “Stability in PBS (in words)” value in data set [12] is listed as “stable in PBS solution”.
Take “(2-(butylcarbamoyl)-3-hydroxyphenyl)(N^1,N^1,N^2,N^2-tetramethylethylenediamine) palladium(II) iodide”: the “Reaction kinetics towards CO (in words)” value in [8] is listed as “the same as the 5a”. The “Aqueous/PBS solubility (in words)” value in data set [9] is reported as “soluble”. The “Stability in PBS (in words)” value in [12] is reported as “stable in PBS solution”.
Take “(2-(butylcarbamoyl)-3-hydroxyphenyl)(bipyridine) palladacycle trifluoromethanesulfonate salt”: in data set [8], the “Reaction kinetics towards CO (in words)” value is reported as “much slower response to CO than 5a” and the “2nd order reaction rate constant towards CO” value worked out at 13.8 ± 1.4 M⁻¹ s⁻¹.
With “(2-(propylcarbamoyl)-3-aminophenyl)(N^1,N^1,N^2,N^2-tetramethylethylenediamine) palladium(II) iodide”, the “Reaction kinetics towards CO (in words)” value in data set [8] was “slower response to CO gas compared to 11a and the hydroxyl derivative 5a”.
For “(2-(propylcarbamoyl)-3-aminophenyl)(bipyridine) palladium(II) iodide”, in [8], the “2nd order reaction rate constant towards CO” value worked out at 220.6 ± 27.2 M⁻¹ s⁻¹. For the same compound, the “Solubility in DMA (in words)” value in data set [9] (DMA) is on record as “soluble in DMA”. In addition, the “Solubility in PBS” value in data set [9] amounted to 100 µM. The “SNR (in words)” value in data set [10] (1, 10 and 100 μM in PBS) is given as “excellent concentration-dependent SNR”. The SNR entry in [10] (setting [18]) is given as “Probe concentration dependent, 405-fold at 10 μM (area-based)”. Also, the “Selectivity for CO” value in [13] is reported as “selectivity for CO”. The “Conversion to fluorescent product / fluorescence recovery with CO” value in data set [4] was “quantitative conversion of 14 to the fluorescent product 25; also recorded: quantitatively forms 25 and produces the same fluorescence intensity after incubation with CO gas”. Further, in data set [3], the “Fluorescence profile λem” value is given as 500 nm and the “Fluorescence profile λex” value amounted to 386 nm. Also, the “Agreement of tissue CO determination with GC-methanizer” value in [14] is on record as “no statistical difference”. Further, the “LOD (limit of detection)” value in data set [11] is on record as 0.5 nM (DMA). Besides, in data set [11] (probe 1 mM in DMA), the Detection limit is 0.1 ppm and 0.108 ppm.
Regarding “(8-(butylcarbamoyl)-4-methoxynaphthyl)(bipyridine) palladacycle trifluoromethanesulfonate salt”, the “Reaction kinetics towards CO (in words)” value in data set [8] is “as fast as 14”. Also, in data set [9], the “Aqueous/PBS solubility (in words)” value is given as “improved aqueous solubility” and the “Solubility in PBS” value was 50 µM. In [15], the Cytotoxicity result was “no cytotoxicity”. Besides, in data set [10] (setting [18]), the SNR entry is “Probe concentration dependent, 157-fold at 10 μM (area-based)”. Also, the “Selectivity for CO” value in [13] was “highly selective”. In addition, in [4], the “Conversion to fluorescent product / fluorescence recovery with CO” value is “formation of the naphthalimide fluorescent product 34”. In [3], the “Fluorescence profile λem” value was found to be 459 nm and the “Fluorescence profile λex” value came to 377 nm. For the same compound, the “Fluorescence in live HeLa cells after treatment with CO” value in [16] is “strong blue fluorescence”. Moreover, the “Sensing of endogenous CO production” value in data set [16] (HeLa, 0.3 μM CDDO-Me, 6 h, exposure 6 s) is listed as “able to sense the increase in endogenous CO production”. In addition, the “LOD (limit of detection)” value in data set [17] (0.1% DMSO in PBS) is reported as 2.06 nM (0.1% DMSO in PBS). The Detection limit in data set [17] is on record as 2.06 nM. Further, the “Stability in PBS (time)” value in data set [12] is on record as “at least 1 hour”.
In the case of “(8-(butylcarbamoyl)-4-methoxynaphthyl)(bipyridine) palladium(II) bromide”, the Cytotoxicity result in data set [15] is on record as “no cytotoxicity”. Also, in data set [13], the “Selectivity for CO” value is given as “highly selective”. Moreover, in data set [16], the “Fluorescence in live HeLa cells after treatment with CO” value is listed as “strong blue fluorescence”. In [17], this compound returned a Detection limit of 2.74 nM. Besides, in [12], the “Stability in PBS (time)” value is on record as “at least 1 hour”.

The values above are taken from US20260385973A1, “CARBON MONOXIDE PROBE MOLECULES” (published 2026).
